Test results reported in patent US20230310452A1, “BROMODOMAIN AND EXTRA TERMINAL DOMAIN (BET) INHIBITOR COMPOSITIONS AND METHODS THEREOF FOR USE AS ANTI-AGING AGENTS” (MDI Biological Laboratory, priority 2020, published 2023).

Test system: CGI- gene expression
Test: CGI- gene expression upon treatment with BET inhibitors other than JQ1 in cell lines/tissues (FIG. 14)
Format: cell-based
Conditions: indicated cell lines/tissues, concentrations, durations, vs untreated controls
Source text: Moreover, the cell line or tissue used in the BET inhibitor treatment, as well as treatment duration and concentration were also provided.

## CCNC(=O)C[C@@H]1N=C(c2ccc(Cl)cc2)c2cc(OC)ccc2-n2c(C)nnc21 [I-BET 762, (S)-2-(6-(4-chlorophenyl)-8-methoxy-1-methyl-4H-benzo[f][1,2,4]triazolo [4,3-a][1,4]diazepin-4-yl)-N-ethylacetamide]
  CGI- gene expression upon BET inhibitors other than JQ1: suppress Cytosine-phosphate-Guanine (CpG) island negative genes
